{"source": "paper PMC4069103", "about": "“Computational Design of a pH Stable Enzyme: Understanding Molecular Mechanism of Penicillin Acylase's Adaptation to Alkaline Conditions” (PLoS ONE, 2014)", "tested_on": "O=C(Cc1ccccc1)Nc1ccc([N+](=O)[O-])c(C(=O)O)c1", "assay": "purified protein", "conditions": "pH 7.5, 25°C, 10 mM phosphate, 0.1 M KCl, hydrolysis"}
{"substance": "penicillin acylase from Escherichia coli (EcPA) (Escherichia coli; D773N)", "values": [{"measurement": "Km", "value": "14.8 ± 0.5", "unit": "µM"}, {"measurement": "kcat", "value": 19.5, "unit": "s⁻¹"}, {"measurement": "kcat/Km", "value": "1.3e+06", "unit": "M⁻¹ s⁻¹"}]}
